In US11318103B2, “Treating soft tissue via controlled drug release” (University of Pittsburgh—Of the Commonwealth System of …, priority 2014, dated 2022):

Experiments:
[1] = test system: bone marrow-derived mesenchymal stem cells (BMD-MSCs); test: BMD-MSC osteogenesis in 2D culture, alizarin red staining; type: cell-based; conditions: BMP exposure alone, 21 days
Protocol: FIGS. 11A and 11B are microphotographs of bone marrow-derived mesenchymal stem cells (BMD-MSCs) showing inhibition of BMD-MSC osteogenesis in 2D culture by dorsomorphin (DM). Phase contrast images of alizarin red stained cultures treated with BMP, DM, and BMP+DM as compared to control and DM cultures.
Phase contrast images of alizarin red stained cultures treated with BMP (B), DM, and BMP+DM (D) as compared to control (A) and DM (C) cultures. The test was performed as the one in FIG. 10 but using bone marrow-derived MSCs and with a sole time point of 21 days.

[2] = test system: muscle-derived multipotent progenitor cells (MPC); test: MPC osteogenesis in 2D, alizarin red staining; type: cell-based, human; conditions: BMP+ medium, no dorsomorphin, especially at 7 weeks
Protocol: FIG. 10 is microtopographs showing inhibition of muscle-derived multipotent progenitor cells (MPC) osteogenesis in 2D by 2.5 nM of dorsomorphin (DM) as shown by alizarin red staining (magnification 10×). Osteogenesis was induced by addition of BMP to the medium.
Heterotopic ossification (HO), the formation of mature bone in the soft tissues, is a frequent complication following trauma. The pathogenesis of HO is not well understood, but is hypothesized to involve an inappropriate cellular response to the inflammatory environment and specific osteogenic signals therein. We have previously isolated and characterized a population of mesenchymal progenitor cells (MPCs) derived from human blast-traumatized muscle (BDM-MSC) that may represent the cellular component of the disease.
Inhibition of muscle-derived multipotent progenitor cells (MPC) osteogenesis in 2D by dorsomorphin (DM) (2.5 mM) as shown by alizarin red staining (Mag=10×) is shown in FIG. 10. MPCs from the same donor were plated and cultured in different conditions. […] Cells were assessed for osteogenesis/calcification at 1, 3, 5, and 7 weeks. Osteogenesis/deposition of calcium was assessed by alizarin red staining, a common histological staining procedure.

[3] = test system: BMP2-induced MPC heterotopic ossification; test: Heterotopic ossification in hind limbs of SCID mice injected with MPC+BMP2+/-DM, bone volume by μCT; type: in vivo; conditions: injection of 25 ng/ml BMP with MPC, no DM
Source text: FIG. 12 is bone volume, determined by μCT, formed ectopically in the hind limbs of SCID mice injected with MPC+BMP2+/−dorsomorphin (DM). DM was delivered in colution (sDM) or in micro particles (mpDM). Representative μCT 3D reconstructions of heterotopic ossification (HO) inhibition of BMP2-stimulated MPC osteogenesis in vivo by dorsomorphin. […] All scans were normalized to the device hydroxyapatite standard (in vivo μCT 40; ScanCo).
Formation of ectopic bone nodules in the hind limbs of SCID mice injected with MPC+BMP2+/−DM. DM was delivered in solution or in micro particles. The DM was loaded into PLGA microparticles. Bone volume is determined by μCT.
Micro-CT 3D reconstructions HO lesions in vivo following injection of (A) MPC/BMP2+DM in microparticles (mp), (B) MPC/BMP2+ soluble (s) DM, and (C) MPC/BMP2 alone. All scans were normalized to the device hydroxy apatite standard (in vivo μCT 40; ScanCo).
Mp DM stands for microparticles containing dorsomorphin. […] A microparticles release system is then necessary for dorsomorphin to be effective. The microparticles were loaded as described in the previous protocol and are particles from the same batch from which particles were taken to perform the release profile in FIG. 4.

[4] = test system: ectopic bone nodules; test: Ectopic bone nodules in hind limbs of SCID mice injected with MPC or HFF +/-BMP2, bone volume by μCT; type: in vivo
Source text: FIG. 9 is a graph of bone volume determined by μCT in an in vivo mouse model. Formation of ectopic bone nodules in the hind limbs of SCID mice injected with muscle-derived multipotent progenitor cells (MPC) with or without BMP2 as compared to those injected with human foreskin fibroblasts (HFF) with or without BMP2, at 1, 2, 4 and 6 weeks.
Formation of ectopic bone nodules in the hind limbs of SCID mice injected with MPC+/−BMP2 as compared to those injected with human foreskin fibroblasts (HFF)+/−BMP2 is shown in FIG. 9. Bone volume is determined by μCT. Injection of collagen served as a negative control.

B1: BMP: bone morphogenetic protein, a strong inducer of osteogenesis added to medium or injected (protein, UniProt P12643 283-396, looked up)
Bone morphogenetic protein 2: QAKHKQRKRLKSSCKRHPLYVDFSDVGWNDWIVAPPGYHAFYCHGECPFPLADHLNSTNHAIVQTLVNSVNSKIPKACCVPTELSAISMLYLDENEKVVLKNYQDMVVEGCGCR
B1 was tested, and the “calcium deposition (alizarin red)” value [1] was “induced a strong calcium deposition”, the “osteogenesis/calcification (alizarin red)” value [2] was “induced a strong osteogenic/calcification phenotype” and the “MPC osteogenesis within the muscle tissue” value [3] was “induces MPC osteogenesis within the muscle tissue”. The “HO lesions (bone volume by μCT)” value ([4]; BMP alone, after 6 weeks, compared to samples with MPCs present) was “significantly reduced”, the “osteogenesis (bone volume by μCT)” value ([4]; BMP alone, week 2 and 4 after injection) was “levels comparable to that measured in MPC+BMP injected samples” and the “osteogenesis (bone volume by μCT)” value ([4]; MPC+BMP2 compared with HFF+BMP2) was “induces significantly more osteogenesis by MPCs than HFF”.
